Screening data as filed in PubChem BioAssay.
MmCpn inh: inhibitors of Methanococcus maripaludis chaperonin TRiC (MmCpn); AID 504842; actives 0.031% (n = 330,000); purified Mm-Cpn ATPase, ADP Transcreener TR-FRET; Potency, µM (series often up to 76.9 µM), inactives show at the highest dose activity, negative = inhibition, hits mostly inhibitors; note: potency is the fitted concentration of half-maximal effect; % is set by controls: 0 for no effect and ±100 for the full control effect; nearly all actives have a fitted effect of over 80% in size
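Compound-treated chaperonin, 25 nM final, turns over 10 uM ATP at 37°C for 30 min following a 10 min preincubation; ADP generated competes with ADP-d2 for Eu-cryptate antibody, lowering FRET.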
B2AR arrestin: recruits beta-arrestin to the human beta2-adrenergic receptor. P07550. beta-arrestin recruitment to beta2AR, cell-based reporter. Potency, µM (doses to about 46.1 µM), for the others: top-dose activation, most hits filed as activators. actives 0.02% (n = 330,000);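 note: potency is the fitted concentration of half-maximal effect; 0% = DMSO controls and full agonism = EC100 isoproterenol or metaproterenol; nearly all actives have a fitted effect of over 65% in size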
Rango dissoc inh: inhibition of RanGTP-driven Rango-importin beta dissociation; O95149+P62826; Biochemical FRET Rango-importin beta, RanGTP-induced dissociation; actives 0.071% (n = 340,000); Potency, µM (titrated, usually from 46.1 µM), inactives show at the top dose activity change, negative = inhibition; calls by dose curve; note: potency is the fitted concentration of half-maximal effect; % of control where 0% means no effect; nearly all actives have a fitted effect of over 45% in size
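Quantitative HTS using a FRET biosensor: 0.1 uM Rango, 0.25 uM importin beta, 0.6 uM Ran, 2 mM GTP, 0.2 uM RCC1 final, PBS with DTT, Tween-20 and BSA. Post-read taken 45 min after Ran addition.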
Rango-impB inh: prevents formation of the Rango-importin beta complex | AID 540263 | Q14974 | Rango CFP/YFP FRET sensor + importin beta, 45 min | Potency, µM (top dose mostly 92.2 µM), without a hit: at the highest dose inhibition of complex formation | actives 0.031% (n = 340,000); calls by dose curve;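 note: potency is the fitted concentration of half-maximal effect; 0% = DMSO wells and 100% = buffer wells lacking importin beta; nearly all actives have a fitted effect of over 15% in size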
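FRET biosensor (snurportin 1 IBB flanked by EYFP and cerulean), 50 nM, with compound 5 min, then 0.125 microM importin beta in PBS, 1 mM DTT, 0.02% Tween-20, 0.1% BSA. CFP/YFP ratio read after 45 min at room temperature; pre-read flags interference.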
CCT modulator: changes cytosolic chaperonin activity; purified chaperonin ATPase assay, HTRF ADP detection, 30 min; activity change, % (concentration not given with the values), hits read low; actives 0.3% (n = 360,000); AID 651819; in the data active = activity change below about -30%; note: % is set by controls: 0 for no effect and ±100 for the full control effect
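TRiC at 40 or 20 nM final (batch-dependent) in 30 mM Tris pH 7.4, 100 mM KCl, 5 mM MgCl2, 1 mM DTT, with compound at single 76 uM and 10 uM ATP, 30 min at 37 deg C. ADP detected by HTRF Transcreener, 665/615 ratio.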
* marks the source's active call; other numbers are inactive results; ? = inconclusive; nt = no result; ! = not active in a repeat. Rows were chosen to be rich in hits. Some 0.43% of all compounds tested hit in one or more screens of this group. Unless noted, calls come from the whole dose curve; as a rule, active = well fitted curve in the direction sought with a large enough effect; inconclusive = small, poorly fitted or top-dose-only effect, or another doubt; inactive = no such curve, though single readings can be large; an effect the other way counts as inactive or inconclusive.

SMILES | MmCpn inh | B2AR arrestin | Rango dissoc inh | Rango-impB inh | CCT modulator
COc1cccc(CNC(=O)CC(NC(C)=O)c2ccccc2)c1 (centres undefined) | 3.4% | -0.3% | -0.5% | 4.4% | -1.0
COc1cccc(C(CCc2cc(OC)c(OC)c(OC)c2)NC(C)=O)c1 (centres undefined) | nt | nt | 15.0% | -1.6% | -73.8*
COc1ccc(CNC(=O)CCCCCNC(=O)N2CCn3c2nc2ccccc23)cc1 | 2.1% | -0.5% | 6.7% | 3.1% | 0.3
COc1ccccc1NC(=O)c1c(NC(=O)c2ccco2)sc2c1CCC2 | -3.4% | -0.7% | 20.6µM* | ? | -2.7
CN(CC(=O)Nc1ccc(F)cc1)C(=O)COC(=O)c1ccc(-c2ccccc2)cc1 | -1.0% | -0.1% | -1.3% | 2.6% | -31.2*
CC(C)COc1ccc(C(=O)OCC(=O)N(C)CC(=O)Nc2ccc(F)cc2)cc1 | -2.1% | -0.6% | -9.1% | -1.1% | 0.2
CCN1/C(=C/c2ccc3cccc(C)c3[n+]2CC)Sc2ccccc21 | -8.1% | -0.5% | 5.5% | 51.7µM* | -3.8
CC(=O)Oc1ccc2c3c(c(=O)oc2c1)CCCC3 | -2.3% | 0.1% | 20.6µM* | ? | -1.7
CC[C@@H](NS(=O)(=O)c1ccc(C)cc1)C(=O)Oc1ccc2c3c(c(=O)oc2c1)CCC3 | -3.5% | -0.8% | -29.6% | -5.9% | -10.2
CCC(NC(=O)OC(C)(C)C)C(=O)Oc1ccc2c3c(c(=O)oc2c1)CCC3 (centres undefined) | -11.2% | -1.1% | 11.6µM* | ? | 0.3
CCOC(=O)/C(C#N)=C/Nc1ccsc1C(=O)OC | 1.2% | ? | 12.2% | 1.3% | -49.1*
O=C(Nc1ccccc1)c1cccnc1NCCc1ccccc1 | 0.5% | -1.1% | -20.7% | -3.2% | -91.1*
COc1ccc(NC(=O)c2cccnc2NCCc2ccccc2)cc1 | 0.9% | -0.6% | 14.3% | ? | -3.4
COCc1c(C(=O)Nc2cccc(S(=O)(=O)N3CCCCC3)c2)oc2ccccc12 | -1.7% | -0.7% | -16.8% | 0.1% | -74.1*
Cc1ccc(O)c(CO)n1 | -1.7% | -0.2% | 0.7% | 1.9% | -1.3
COc1ccc(CCc2nc(C)ccc2O)cc1 | 0.4% | -1.2% | -4.2% | ? | -66.9*!
C[C@]1(CC/C(=C/CO)CO)[C@H](CO)CC[C@@]23COC(=O)C2=CCC[C@@H]31 | 2.1% | -0.1% | -4.0% | -0.2% | -0.1
Cc1ccc(-c2c(C(=O)N/N=C/c3c[nH]c4ccccc34)nnn2-c2nonc2N)cc1 | 0.0% | 0.4% | -18.3% | -0.6% | -73.6*
O=[N+]([O-])c1ccccc1N/N=C/c1c[nH]c2ccccc12 | -2.5% | -0.4% | -15.4% | 2.3% | 1.0
O=C(N/N=C/c1c[nH]c2ccccc12)c1cccs1 | 2.9% | -0.4% | 6.6% | -0.8% | -39.6*
O=[N+]([O-])c1ccc(N/N=C/c2c[nH]c3ccccc23)cc1 | -1.8% | -0.5% | ? | 20.6µM* | 0.0
CCc1ccc(NC(=S)N2CCC(NC(=O)c3ccccc3)CC2)cc1 | -0.5% | 0.4% | -12.9% | 4.2% | -0.7
COc1ccccc1-n1cnc2sc(C)c(C)c2c1=O | -2.5% | -0.5% | -4.7% | -0.8% | -94.0*
CC(=O)NC1=NN(C(C)=O)C(c2ccco2)S1 (centres undefined) | 2.6% | 0.1% | 0.6% | 0.5% | -3.1

3 structures already listed, arranged by length of the SMILES, largest number first.
SMILES | MmCpn inh | B2AR arrestin | Rango dissoc inh | Rango-impB inh | CCT modulator
COc1cccc(CNC(=O)CC(NC(C)=O)c2ccccc2)c1 (centres undefined) | 3.4% | -0.3% | -0.5% | 4.4% | -1.0
COc1ccc(NC(=O)c2cccnc2NCCc2ccccc2)cc1 | 0.9% | -0.6% | 14.3% | ? | -3.4
CC(=O)Oc1ccc2c3c(c(=O)oc2c1)CCCC3 | -2.3% | 0.1% | 20.6µM* | ? | -1.7

The list goes on:
SMILES | MmCpn inh | B2AR arrestin | Rango dissoc inh | Rango-impB inh | CCT modulator
COc1ccc(C(=O)N=C2SC3CS(=O)(=O)CC3N2c2ccc(N(C)C)cc2)cc1OC (centres undefined) | -0.3% | -0.3% | ? | ? | -59.5*
CC(C)n1nc(C(=O)Nc2ccc(-n3cnnn3)cc2)c2ccccc2c1=O | 2.6% | -0.8% | -0.9% | -0.9% | -31.0*
CCOC(=O)N1CCN(C(=O)CCS(=O)(=O)c2ccc3c(c2)CC(C)N3C(=O)CC)CC1 (centres undefined) | 0.2% | 0.3% | 28.3% | 8.9% | -76.9*
Cc1c(C(=O)N2CCOCC2)c(S(=O)(=O)Nc2ccccc2)c(C)n1C | 0.0% | 0.3% | -11.8% | 0.3% | -53.4*
Cc1c(C(=O)N2CCOCC2)c(S(=O)(=O)Nc2ccc(F)cc2)c(C)n1C | 0.0% | -0.1% | 0.5% | 0.9% | -0.2
Cc1cc(C)n(-c2nc(NC(C)C)nc(NC(C)C)n2)n1 | 0.3% | 12.6µM* | -10.7% | 0.6% | -7.7
